The values below come from publication PMC9945182 (Chemical Research in Toxicology, 2023).

Structures are written as SMILES.

In one assay the target is T1, FMO1 (Homo sapiens, UniProt Q01740).
T1 sequence (Q01740 1-532): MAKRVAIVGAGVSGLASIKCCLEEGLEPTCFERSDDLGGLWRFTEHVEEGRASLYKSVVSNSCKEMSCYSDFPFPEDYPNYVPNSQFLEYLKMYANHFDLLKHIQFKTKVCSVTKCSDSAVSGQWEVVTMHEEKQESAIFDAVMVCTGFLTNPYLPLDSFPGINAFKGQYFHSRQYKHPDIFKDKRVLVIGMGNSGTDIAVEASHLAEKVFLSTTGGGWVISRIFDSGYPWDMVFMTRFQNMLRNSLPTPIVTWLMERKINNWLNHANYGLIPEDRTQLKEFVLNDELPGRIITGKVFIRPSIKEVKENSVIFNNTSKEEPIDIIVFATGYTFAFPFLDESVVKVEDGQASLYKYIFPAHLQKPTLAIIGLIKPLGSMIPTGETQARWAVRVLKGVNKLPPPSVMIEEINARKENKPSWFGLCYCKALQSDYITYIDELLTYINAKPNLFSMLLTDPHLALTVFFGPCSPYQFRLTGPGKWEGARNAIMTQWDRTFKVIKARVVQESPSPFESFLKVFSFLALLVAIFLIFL
It is filed as biochemical. Conditions: up to 50 μM, potential inhibitor control.

The target of another assay is T2, FMO3 (Homo sapiens, UniProt P31513).
T2 sequence (P31513 1-532): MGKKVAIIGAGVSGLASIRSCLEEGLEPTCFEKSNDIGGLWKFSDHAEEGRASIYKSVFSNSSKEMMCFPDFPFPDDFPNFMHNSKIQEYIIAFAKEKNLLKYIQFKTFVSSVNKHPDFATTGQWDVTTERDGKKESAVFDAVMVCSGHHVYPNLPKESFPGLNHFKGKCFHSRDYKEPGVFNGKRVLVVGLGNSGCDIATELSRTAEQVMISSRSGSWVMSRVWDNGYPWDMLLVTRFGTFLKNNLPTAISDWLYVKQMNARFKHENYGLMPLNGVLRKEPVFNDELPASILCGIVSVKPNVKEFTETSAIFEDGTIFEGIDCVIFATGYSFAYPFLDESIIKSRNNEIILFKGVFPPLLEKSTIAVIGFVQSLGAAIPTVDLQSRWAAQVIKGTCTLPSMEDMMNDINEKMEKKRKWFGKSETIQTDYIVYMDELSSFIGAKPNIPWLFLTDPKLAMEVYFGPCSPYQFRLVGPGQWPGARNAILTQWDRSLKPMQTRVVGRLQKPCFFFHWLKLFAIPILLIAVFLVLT
Format: biochemical. The note with it: up to 50 μM, potential inhibitor control.

In the case of `CN(C)CCCOc1nn(Cc2ccccc2)c2ccccc12` [benzydamine], the “inhibition of FMO activities” value against FMO1 and against FMO3 was “no significant inhibition” in each case.
